From US9481646B2, “Low calcemic, highly antiproliferative, analogs of calcitriol” (The Johns Hopkins University, priority 2007, dated 2016)

Target: T1, recombinant human VDR and a reporter gene containing a vitamin D response element (VDRE) (Homo sapiens, UniProt P11473)
T1 sequence (P11473 1-427): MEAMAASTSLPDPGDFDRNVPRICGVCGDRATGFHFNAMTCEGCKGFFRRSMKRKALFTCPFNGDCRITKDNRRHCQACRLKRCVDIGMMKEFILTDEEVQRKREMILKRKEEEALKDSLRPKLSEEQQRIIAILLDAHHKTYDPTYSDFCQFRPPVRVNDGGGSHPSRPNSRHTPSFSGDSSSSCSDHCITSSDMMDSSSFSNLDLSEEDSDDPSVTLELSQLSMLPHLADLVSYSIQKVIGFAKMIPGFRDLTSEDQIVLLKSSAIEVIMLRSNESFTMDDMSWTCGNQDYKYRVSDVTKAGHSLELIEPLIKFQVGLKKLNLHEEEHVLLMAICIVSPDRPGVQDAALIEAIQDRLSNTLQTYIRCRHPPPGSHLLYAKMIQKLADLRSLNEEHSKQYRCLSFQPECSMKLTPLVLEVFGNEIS

C=C1/C(=C\C=C2/CCC[C@]3(C)[C@@H]([C@H](C)COCC4=CCCCC4(C)C)CC[C@@H]23)C[C@@H](O)C[C@@H]1O [Analog 1d]
Transcriptional Activity ED50: 52 nM
